# Experimental data as given in patent US20100143381A1, “LYSOPHOSPHATIDIC ACID RECEPTOR TARGETING FOR LUNG DISEASE” (priority 2007, published 2010).
# System: primary lung fibroblasts
# Test: Fibroblast chemotaxis induced by albumin alone
# Format: cell-based, mouse
# Details: FIG. 9a
# Description: After being serum-starved in DMEM without FBS overnight, subconfluent primary lung fibroblasts were harvested with non-enzymatic Cell Dissociation Solution (Sigma) to avoid possible proteolysis of surface chemoattractant receptors by trypsin. Harvested cells, at 5.0×10^5 cells/ml in 50 μl of DMEM, were placed in the top of a 48-well modified Boyden microchemotaxis chamber (NeuroProbe). Duplicate 30 μl aliquots of either: i) 18:1 LPA (Avanti Polar Lipids) or PDGF-BB (R&D Systems) in DMEM with 0.1% fatty acid-free bovine serum albumin (Sigma); or ii) BAL, or BAL fractions, diluted 1:4 in DMEM, were placed in the bottom wells of the chamber and separated from the cells by a 8-μm-pore, polyvinylpyrrolidone-free polycarbonate filter (Osmonics) that had been coated with fibronectin (Sigma). The apparatus was incubated at 37° C. and 5% CO2 for 3 hours, and cells migrating across the filter and adhering to the bottom side of the filter were stained with a commercially modified Wright's stain (Hema 3 stain set, Fisher Diagnostics) and counted, after cells remaining on the top side of the filter had been scraped off. Data from these experiments is presented as chemotactic indices, i.e. the number of cells migrating in response to BAL divided by the number of cells migrating to media controls.
Substance,induction of fibroblast chemotaxis by albumin alone,induction of fibroblast chemotaxis by albumin alone (listed as methanol-extracted fatty acid-free albumin)
methanol-extracted fatty acid-free mouse serum albumin: methanol-extracted fatty acid-free mouse serum albumin (MSA),did not induce chemotaxis,did not induce fibroblast chemotaxis
nonextracted MSA: mouse serum albumin that has not had bound lipids extracted,did,
